# Values of other authors, collected in patent publication US5602094A, “Treatment of tumors” (priority 1994, dated 1997).
# Tested on: phospholipase A2 (PLA2)
# Conditions: cited from earlier work
substance,measurement,value
mellitin,PLA2 enzyme activity enhancement,capacity to enhance PLA2 enzyme activity
